Target: stromal Chrm1 (Mus musculus, UniProt P12657)
Conditions: carbachol; harvested at week 10
Method: A second cycle was administered at week four and mice were sacrificed one week later (five weeks after graft). For cholinergic experiments using the nu/nu Chrm1^tm1Stl+/+ and nu/nu Chrm1^tm1Stl−/− animals, mice were sacrificed at week six post-graft. For the survival study, grafted mice were treated as described hereinabove from week 4, every two weeks for up to 25 weeks or until death. Disease progression was monitored by bioluminescence scanner. […] One week later, mice received a second round of treatment and were then sacrificed at month four.

Sequences of proteins named here, by UniProt entry; tags and fusion partners are left off. A change or cut given only in a name is not applied to a line headed by its entry.
UniProt P12657: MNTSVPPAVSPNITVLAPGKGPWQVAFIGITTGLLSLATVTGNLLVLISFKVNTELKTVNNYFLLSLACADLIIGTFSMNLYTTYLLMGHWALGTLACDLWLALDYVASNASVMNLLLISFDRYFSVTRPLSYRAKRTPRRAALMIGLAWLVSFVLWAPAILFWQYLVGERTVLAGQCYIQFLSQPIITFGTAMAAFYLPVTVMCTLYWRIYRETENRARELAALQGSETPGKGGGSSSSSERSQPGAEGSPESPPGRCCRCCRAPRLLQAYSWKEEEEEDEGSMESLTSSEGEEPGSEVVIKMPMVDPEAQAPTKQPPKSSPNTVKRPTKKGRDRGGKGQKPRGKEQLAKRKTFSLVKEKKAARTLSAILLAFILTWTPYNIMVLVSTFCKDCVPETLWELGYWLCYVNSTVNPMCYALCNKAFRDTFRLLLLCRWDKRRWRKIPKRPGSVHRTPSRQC

C[N+](C)(C)CCOC(N)=O.[Cl-] [carbachol, carbamoylcholine chloride]
tumor behavior (basement membrane disruption, tumor epithelial cell proliferation): switched the tumor behavior to an invading phenotype

— patent publication US20140322242A1, “MATERIALS AND METHODS FOR THE PREVENTION AND TREATMENT OF CANCER” (Icahn School of Medicine at Mount Sinai, priority 2010, published 2014)
